Test system: human PBMCs
Test: CMV stimulation of PBMCs with ectopic recombinant human CD28, CTLA-4, CD80; cytokine ELISA/multiplex
Assay type: cell-based
Conditions: CMV 0.5 μg/mL

soluble CTLA-4: recombinant human CTLA-4 (R&D systems), mimicking Abatacept
cytokine secretion profiles, comparison with sCD28: over-all similar impact on the immune system
